Measured values as given in ChEMBL document CHEMBL1147615, “Design and synthesis of novel small molecule N/OFQ receptor antagonists” (2004).

Chains of the proteins cited; added tags and fusions are not shown. Lines headed by an entry give the natural chain unless they say otherwise; changes in a name come on top.
UniProt P35372, whole entry, looked up: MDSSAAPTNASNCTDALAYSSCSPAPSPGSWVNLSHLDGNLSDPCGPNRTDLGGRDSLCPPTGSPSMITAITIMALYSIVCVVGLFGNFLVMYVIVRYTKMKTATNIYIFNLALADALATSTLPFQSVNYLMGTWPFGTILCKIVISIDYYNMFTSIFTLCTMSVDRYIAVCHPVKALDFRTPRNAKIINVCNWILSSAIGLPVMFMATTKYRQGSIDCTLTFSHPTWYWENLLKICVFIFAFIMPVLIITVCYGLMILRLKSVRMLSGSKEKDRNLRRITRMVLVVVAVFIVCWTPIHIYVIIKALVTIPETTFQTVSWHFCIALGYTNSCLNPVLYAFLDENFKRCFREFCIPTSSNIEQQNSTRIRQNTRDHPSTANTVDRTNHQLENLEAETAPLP
UniProt P41146: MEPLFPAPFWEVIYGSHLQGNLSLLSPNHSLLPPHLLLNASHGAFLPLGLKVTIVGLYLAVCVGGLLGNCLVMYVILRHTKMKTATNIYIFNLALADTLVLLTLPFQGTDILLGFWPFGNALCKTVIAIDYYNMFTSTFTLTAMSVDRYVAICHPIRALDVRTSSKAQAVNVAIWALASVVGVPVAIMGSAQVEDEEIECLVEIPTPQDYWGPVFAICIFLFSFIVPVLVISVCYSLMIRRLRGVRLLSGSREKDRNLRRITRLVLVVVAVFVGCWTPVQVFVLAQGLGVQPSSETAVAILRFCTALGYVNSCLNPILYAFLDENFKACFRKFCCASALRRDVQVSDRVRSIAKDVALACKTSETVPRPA
UniProt P41145: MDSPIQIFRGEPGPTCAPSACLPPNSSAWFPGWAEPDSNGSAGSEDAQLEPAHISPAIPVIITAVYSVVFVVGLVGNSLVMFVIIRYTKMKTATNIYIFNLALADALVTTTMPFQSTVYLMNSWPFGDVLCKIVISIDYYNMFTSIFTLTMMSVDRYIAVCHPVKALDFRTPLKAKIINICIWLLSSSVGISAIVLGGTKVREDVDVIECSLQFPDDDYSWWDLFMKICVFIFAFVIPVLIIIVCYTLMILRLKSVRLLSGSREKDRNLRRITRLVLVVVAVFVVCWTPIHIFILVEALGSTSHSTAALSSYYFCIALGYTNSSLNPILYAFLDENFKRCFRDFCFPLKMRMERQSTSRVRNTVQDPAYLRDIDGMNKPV
UniProt P41143, whole entry, looked up: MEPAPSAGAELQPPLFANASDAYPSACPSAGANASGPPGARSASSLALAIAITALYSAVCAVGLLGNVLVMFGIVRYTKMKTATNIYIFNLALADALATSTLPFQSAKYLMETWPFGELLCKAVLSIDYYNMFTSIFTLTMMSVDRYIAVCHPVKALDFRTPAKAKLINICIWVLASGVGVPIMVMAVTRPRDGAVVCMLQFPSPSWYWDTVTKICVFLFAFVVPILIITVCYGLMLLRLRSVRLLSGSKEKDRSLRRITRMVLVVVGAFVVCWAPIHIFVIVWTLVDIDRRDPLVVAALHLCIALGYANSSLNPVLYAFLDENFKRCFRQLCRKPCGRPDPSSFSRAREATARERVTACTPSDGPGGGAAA

Legend:
[1] = molecular target: Mu-type opioid receptor (Homo sapiens, UniProt P35372); test: Binding affinity towards opioid receptor mu 1 using [3H]- diprenophine as radioligand from membrane preparations of recombinant HEK293 cells
[2] = molecular target: Nociceptin receptor (Homo sapiens, UniProt P41146); test: Binding affinity towards Nociceptin/orphanin FQ (N/OFQ) receptor from recombinant HEK293 cell membranes was determined using binding assay
[3] = molecular target: Kappa-type opioid receptor (Homo sapiens, UniProt P41145); test: Tested for the opioid receptor kappa 1 binding affinity using membrane preparations from recombinant HEK293 cells with [3H]U-69593 radioligand
[4] = molecular target: Delta-type opioid receptor (Homo sapiens, UniProt P41143); test: Tested for the opioid receptor delta 1 binding affinity using membrane preparations from recombinant HEK293 cells with [3H]naltrindole radioligand

CCN1C(=O)N(C2CCN(Cc3ccccc3)CC2)[C@@H]2CCCC[C@H]21
Ki [1]: 716 nM
Ki [2]: 692 nM

O=C1N[C@@H]2CCCC[C@H]2N1C1CCN(Cc2ccccc2)CC1
Ki [2]: 1050 nM

CCN1C(=O)N(C2CCN(CCC(c3ccccc3)c3ccccc3)CC2)[C@@H]2CCCC[C@H]21
Ki [1]: 267 nM
Ki [2]: 4360 nM

CCN1C(=O)N(C2CCN(CC3CCCCCCC3)CC2)[C@@H]2CCCC[C@H]21
Ki [1]: 448 nM
Ki [3]: > 10000 nM
Ki [4]: > 10000 nM
Ki [2]: 11 nM

CCN1C(=O)N(C2CCN(C(C)CCC(C)C)CC2)[C@@H]2CCCC[C@H]21 (stereo partly drawn)
Ki [1]: 395 nM
Ki [2]: 410 nM

O=C1N[C@@H]2CCCC[C@H]2N1C1CCN(CC2CCCCCCC2)CC1
Ki [1]: 1070 nM
Ki [3]: 1700 nM
Ki [4]: 6530 nM
Ki [2]: 16 nM

CCCC1CCC(N2CCC(N3C(=O)N(CC)[C@@H]4CCCC[C@H]43)CC2)CC1 (stereo partly drawn)
Ki [1]: 2170 nM
Ki [2]: 1240 nM

CC(C)CCC(C)N1CCC(N2C(=O)N[C@@H]3CCCC[C@H]32)CC1 (stereo partly drawn)
Ki [1]: 426 nM
Ki [2]: 414 nM

CCN1C(=O)N(C2CCN(C3CCC4CCCCC4C3)CC2)[C@@H]2CCCC[C@H]21 (stereo partly drawn)
Ki [3]: > 10000 nM

CC(C)C1CCC(N2CCC(N3C(=O)N[C@@H]4CCCC[C@H]43)CC2)CC1 (stereo partly drawn)
Ki [1]: 959 nM
Ki [3]: 6210 nM
Ki [4]: > 10000 nM
Ki [2]: 39 nM

CCN1C(=O)N(C2CCN(Cc3ccc4ccccc4c3)CC2)[C@@H]2CCCC[C@H]21
Ki [1]: 199 nM
Ki [2]: 824 nM

O=C1N[C@@H]2CCCC[C@H]2N1C1CCN(CCC(c2ccccc2)c2ccccc2)CC1
Ki [1]: 27 nM
Ki [2]: 437 nM

CCN1C(=O)N(C2CCN(C3CCC(C(C)C)CC3)CC2)[C@@H]2CCCC[C@H]21 (stereo partly drawn)
Ki [1]: 421 nM
Ki [3]: > 10000 nM
Ki [4]: > 10000 nM
Ki [2]: 89 nM

O=C1N[C@@H]2CCCC[C@H]2N1C1CCN(C2CCCCCCC2)CC1
Ki [1]: 1400 nM
Ki [2]: 125 nM

O=C1N[C@@H]2CCCC[C@H]2N1C1CCN(C2CCC3CCCCC3C2)CC1 (stereo partly drawn)
Ki [1]: 208 nM
Ki [3]: 1390 nM
Ki [4]: > 10000 nM
Ki [2]: 51 nM
